Reference: PubChem BioAssay AID926 (National Center for Advancing Translational Sciences (NCATS), 2007)
Out of some 73,000 compounds screened, about 350 (0.48%) were called active. The source calls these results inconclusive, neither active nor inactive. Calls come from the whole dose curve; as a rule, active = well fitted activation curve with a large enough effect in the main read-out, with a control signal flat (not every such curve was filed as active); inconclusive = small, poorly fitted or top-dose-only effect, or a change in a side signal; inactive = no such curve, though single readings can be large or run the other way; reference of the percent scale not stated here.

By UniProt entry, the sequences of proteins in these tests, tags left out.
UniProt P16473, whole entry, looked up: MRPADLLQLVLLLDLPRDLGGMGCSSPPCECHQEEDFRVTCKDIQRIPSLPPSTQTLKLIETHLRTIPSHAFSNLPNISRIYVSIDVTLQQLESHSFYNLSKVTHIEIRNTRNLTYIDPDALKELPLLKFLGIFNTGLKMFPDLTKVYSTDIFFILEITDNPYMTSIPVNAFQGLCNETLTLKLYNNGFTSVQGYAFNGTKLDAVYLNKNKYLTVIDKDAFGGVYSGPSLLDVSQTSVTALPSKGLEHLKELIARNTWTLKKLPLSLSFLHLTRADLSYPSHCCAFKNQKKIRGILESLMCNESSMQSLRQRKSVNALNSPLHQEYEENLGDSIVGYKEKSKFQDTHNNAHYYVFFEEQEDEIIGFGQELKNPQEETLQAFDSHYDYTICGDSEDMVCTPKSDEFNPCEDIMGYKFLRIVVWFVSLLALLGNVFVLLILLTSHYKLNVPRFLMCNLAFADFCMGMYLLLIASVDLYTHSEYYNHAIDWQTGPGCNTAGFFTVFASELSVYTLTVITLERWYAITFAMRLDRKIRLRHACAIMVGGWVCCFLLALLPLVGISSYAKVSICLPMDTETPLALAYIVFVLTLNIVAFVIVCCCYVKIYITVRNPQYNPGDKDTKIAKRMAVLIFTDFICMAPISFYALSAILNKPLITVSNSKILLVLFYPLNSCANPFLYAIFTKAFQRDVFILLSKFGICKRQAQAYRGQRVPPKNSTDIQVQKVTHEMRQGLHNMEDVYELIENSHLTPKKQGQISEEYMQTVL

target: Thyrotropin receptor (Homo sapiens) (UniProt P16473); test: qHTS Assay for Agonists of the Thyroid Stimulating Hormone Receptor; conditions: HEK293-CNG-TSHR cells (CNG channel as cAMP sensor), membrane potential dye, cAMP;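 note: the control signal comes from parental cells without the receptor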
Potency is the fitted concentration of half-maximal effect.

Structure (SMILES)	Potency
NC(=O)Nc1cc([As](=O)(O)O)cc(I)c1O	inconclusive: 0.0398 µM
CCOP1(=S)c2c(C)nn(CCC#N)c2N=C(c2ccccc2F)N1C (configuration not stated)	inconclusive: 15.8 µM
